US7772408B1, “Substituted 5-alkoxypsoralens as inhibitors of potassium channel activity in lymphocytes and other cells” (The Regents of the University of California, priority 2002, dated 2010)

Experiment: physchem

Compound: COc1c2ccoc2cc2oc(=O)ccc12 [5-MOP, 5-Methoxypsoralen]
- chromatographic logP: 2.15
